Experiment: in vivo
Conditions: mouse, ip

NS(=O)(=O)NC[C@H]1COc2cc(Cl)ccc2O1 [compound 4, (2S)-(–)-N-((6-Chloro-2,3-dihydrobenzo[1,4]dioxin-2-yl)methyl)sulfamide]
TD50: 355 mg/kg
